The entries are a selection whose mix differs from that of the whole data set. Some results for these compounds are left out of this collection, so the calls shown say nothing about other tests. Calls of active or inactive are those of the source.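 How the source made its calls: active means GFP response vs DMSO above a set limit, about the screen mean plus 3 SD (cut at about 150% in these data); inconclusive means under 70 cell events counted for the yeast strain; inactive means the rest.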
Experiment: modulators of LAP4-GFP expression in yeast, primary screen, S. cerevisiae, multiplex flow cytometry, MLPCN library (AID 2023)
Conditions: 3 h, at 10 µM, hits give high values, median GFP as percent of DMSO wells

Structure (SMILES) | GFP response vs DMSO
CN(C)C1(CNC(=O)c2ccc(Br)cc2)CCCCC1 | inactive: 98.4%
COc1cc(C(=O)NCC2(N(C)C)CCCCC2)c([N+](=O)[O-])cc1OC | inactive: 91.9%
COc1ccc(Cl)cc1C(=O)NCC1(N(C)C)CCCCC1 | inactive: 104%
COc1cccc(C(=O)NCC2(N3CCCCC3)CCCCC2)c1 | inactive: 97.8%
O=C(NCC1(N2CCCCC2)CCCCC1)c1cccc(Cl)c1 | inactive: 96.5%
O=C(OC1CN2CCC1CC2)C(CO)(c1ccccc1)c1ccccc1 (centres undefined) | inactive: 100%
COc1ccc(Br)c(C(=O)NCC2(N3CCCCC3)CCCCC2)c1 | inactive: 97.6%
CC(C)Oc1ccc(C(=O)NCC2(N(C)C)CCCCC2)cc1 | inactive: 94.6%
CN(C)c1cccc(C(=O)NCC2(N(C)C)CCCCC2)c1 | inactive: 107%
O=C(NCC1(N2CCCCC2)CCCCC1)c1cc([N+](=O)[O-])ccc1Cl | inactive: 98.8%
CN1[C@@H]2CC[C@H]1CC(OC(=O)C(O)(c1ccccc1)c1ccccc1)C2 (some centres undefined) | inactive: 102%
COc1cc(SC)ccc1C(=O)NCC1(N(C)C)CCCCC1 | inactive: 87.2%
CCN(CC)CC(C)C(C)OC(=O)C(O)(c1ccccc1)c1ccccc1 (centres undefined) | inactive: 111%
CC(C)N1C(=O)CC2(CCN(CCOC(=O)C(O)(c3ccccc3)c3ccccc3)CC2)C1=O | inactive: 97.4%
Cc1ccc(C(=O)NCC2(N3CCCCC3)CCCCC2)cc1 | inactive: 93%
CN(C)c1ccc(C(=O)NCC2(N(C)C)CCCCC2)cc1 | inactive: 98.7%
CN(C)C1CCCC1OC(=O)C(O)(c1ccccc1)c1ccccc1 (centres undefined) | inactive: 95.2%
Cc1ccccc1C(=O)NCC1(N2CCCCC2)CCCCC1 | inactive: 98.8%
O=C(NCC1(N2CCCCC2)CCCCC1)c1cc(F)c(F)cc1Cl | inactive: 93.5%
C=CCN1CCN(CCOC(=O)C(O)(c2ccccc2)c2ccccc2)CC1 | inactive: 99.9%
COc1ccc(C(=O)NCC2(N(C)C)CCCCC2)cc1 | inactive: 93.8%
O=C(NCC1(N2CCCCC2)CCCCC1)c1cccc(Br)c1 | inactive: 100%
CCN1CCCC(OC(=O)C2(O)c3ccccc3C=Cc3ccccc32)C1 (centres undefined) | inactive: 86.4%
Cc1cc(C(=O)NCC2(N3CCCCC3)CCCCC2)ccc1[N+](=O)[O-] | inactive: 75.1%

From PubChem BioAssay AID2023 (NMMLSC, 2009)
